Values of other authors in article PMC10674299, “Discovery of Guanfacine as a Novel TAAR1 Agonist: A Combination Strategy through Molecular Modeling Studies and Biological Assays” (Pharmaceuticals, 2023).
Values joined by “and” are separate entries in the source; they are usually repeats but may differ in a detail not shown here. Equal entries are not always repeated.

Target: α2-ADR
Conditions: read-out: α2-ADR Ki; cited from earlier work

| Structure (SMILES) | Ki |
| --- | --- |
| c1ccc(N(Cc2c[nH]cn2)C2CC2)cc1 | 0.062 to 0.33 µM |
| c1ccc(N(Cc2c[nH]cn2)c2ccccc2)cc1 | 0.062 µM and 0.062 to 0.33 µM |
| c1ccc(CN(Cc2c[nH]cn2)c2ccccc2)cc1 | 0.128 to 0.521 µM |
| CC(C)N(Cc1ncc[nH]1)c1cccc(Cl)c1 | 4.35 µM |
| CN(Cc1ncc[nH]1)c1ccccc1 | 0.254 to 0.497 µM |
